## scFv variants of Ab-91 (heavy chain) against a SARS-CoV-2 spike peptide

Data: MIT Lincoln Laboratory AlphaSeq set, Engelhart et al. 2022, doi:10.1038/s41597-022-01779-4, as distributed in FLAb.

Target peptide (SARS-CoV-2 spike, HR2 region): PDVDLGDISGINAS

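Phage display of a naive human antibody library on the peptide gave the parent. Library AAYL51 holds single substitutions and randomly drawn double and triple substitutions in the CDRs. AlphaSeq pools MATa yeast showing the antibodies with MATalpha yeast showing the peptide. After mating in shaken culture at 30 °C for 16 h, diploids were selected and their barcode pairs sequenced. A regression on co-assayed BCL2-family reference pairs converts the normalised counts of each replicate to an apparent Kd. There are three technical replicates.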

Parent: Ab-91, a human scFv built as VL, a (GGGGS)3 linker, VH. Only the CDRs of the heavy chain vary.
VL: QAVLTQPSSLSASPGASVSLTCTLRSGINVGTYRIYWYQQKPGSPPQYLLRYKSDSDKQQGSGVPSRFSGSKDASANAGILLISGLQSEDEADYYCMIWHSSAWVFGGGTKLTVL
VH: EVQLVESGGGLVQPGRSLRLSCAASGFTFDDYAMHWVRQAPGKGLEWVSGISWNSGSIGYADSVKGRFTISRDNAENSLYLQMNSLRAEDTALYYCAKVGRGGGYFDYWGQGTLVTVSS

Positions count from residue 1 of the parent VH; T28E puts E in place of T. This list gathers variants with a substitution at I58 (VH, numbered from residue 1). Values are apparent Kd, the geometric mean of the replicates that gave a signal; lower means stronger binding. "nd" means that the variant was in the library but no mating with the target was seen in any replicate; the authors take this as a sign of poor binding, and no number exists. As a blank, each scFv also met three strains without target: over library AAYL51, 21% of these pairings were detected, typically at 34 µM and seldom below 1.8 µM. In this assay the parent's reference entry averaged 72 nM; its copy inside this library read 7.5 nM.

T28E+I58Y+Y60D: 280 µM (2 of 3 replicates).
I58M+R101W+Y108M: nd (0 of 3 replicates).
I58D+Y60A+V99M: 590 nM (3 of 3 replicates).
D31C+I58E: 12 nM (3 of 3 replicates).
I58H+D62W+G102C: nd (0 of 3 replicates).
G26D+I58M+D62K: nd (0 of 3 replicates).
S52Q+N54E+I58C: nd (0 of 3 replicates).
I51L+I58L+K65C: nd (0 of 3 replicates).
G56C+I58T: 7.1 nM (3 of 3 replicates).
Y32A+I58Y+R101W: 1.4 µM (2 of 3 replicates).
M34F+I58N+G59E: nd (0 of 3 replicates).
S57Q+I58L+S63H: 16 nM (3 of 3 replicates).
S57N+I58G+Y108A: 5.7 µM (2 of 3 replicates).
I58K+V99L+G103F: 480 µM (1 of 3 replicates).
Y32D+G50N+I58G: 110 µM (1 of 3 replicates).
I58K+Y60D+G103D: nd (0 of 3 replicates).
I58E+G102V: 2.1 µM (1 of 3 replicates).
T28C+I58N+G103C: 1.2 µM (1 of 3 replicates).
I58S+Y105C: 19 nM (3 of 3 replicates).
F29N+I58W+V64T: 3.9 µM (1 of 3 replicates).
D31S+I58M+F106R: 240 µM (1 of 3 replicates).
I58H+A61H+G100T: nd (0 of 3 replicates).
I51N+I58E+F106K: 320 µM (2 of 3 replicates).
D31A+I58K+G104I: 24 µM (1 of 3 replicates).
F29L+S52E+I58Y: nd (0 of 3 replicates).
F27L+I58G+K65L: nd (0 of 3 replicates).
F27C+I58D: 8.1 µM (1 of 3 replicates).
H35I+I58A+D62C: nd (0 of 3 replicates).
I58A: 160 µM (2 of 3 replicates).
D30A+G50E+I58D: 11 µM (1 of 3 replicates).
I58D+D62S+G104P: 18 nM (3 of 3 replicates).
I58P+Y105T+Y108V: 390 µM (2 of 3 replicates).
T28P+I58P+S63P: 150 µM (3 of 3 replicates).

The closing 4 entries, repeated:

Variant D30A+G50E+I58D showed 11 µM (1 of 3 replicates).
Variant I58D+D62S+G104P showed 18 nM (3 of 3 replicates).
Variant I58P+Y105T+Y108V showed 390 µM (2 of 3 replicates).
Variant T28P+I58P+S63P showed 150 µM (3 of 3 replicates).